Data published in patent US20240360179A1, “STAPLED PEPTIDES AND METHODS THEREOF” (FOG PHARMACEUTICALS, INC., priority 2021, published 2024).
Where two headings read alike, the source gives them in different places.

By UniProt entry, the sequences of proteins in these tests, tags left out.
UniProt P35222, whole entry: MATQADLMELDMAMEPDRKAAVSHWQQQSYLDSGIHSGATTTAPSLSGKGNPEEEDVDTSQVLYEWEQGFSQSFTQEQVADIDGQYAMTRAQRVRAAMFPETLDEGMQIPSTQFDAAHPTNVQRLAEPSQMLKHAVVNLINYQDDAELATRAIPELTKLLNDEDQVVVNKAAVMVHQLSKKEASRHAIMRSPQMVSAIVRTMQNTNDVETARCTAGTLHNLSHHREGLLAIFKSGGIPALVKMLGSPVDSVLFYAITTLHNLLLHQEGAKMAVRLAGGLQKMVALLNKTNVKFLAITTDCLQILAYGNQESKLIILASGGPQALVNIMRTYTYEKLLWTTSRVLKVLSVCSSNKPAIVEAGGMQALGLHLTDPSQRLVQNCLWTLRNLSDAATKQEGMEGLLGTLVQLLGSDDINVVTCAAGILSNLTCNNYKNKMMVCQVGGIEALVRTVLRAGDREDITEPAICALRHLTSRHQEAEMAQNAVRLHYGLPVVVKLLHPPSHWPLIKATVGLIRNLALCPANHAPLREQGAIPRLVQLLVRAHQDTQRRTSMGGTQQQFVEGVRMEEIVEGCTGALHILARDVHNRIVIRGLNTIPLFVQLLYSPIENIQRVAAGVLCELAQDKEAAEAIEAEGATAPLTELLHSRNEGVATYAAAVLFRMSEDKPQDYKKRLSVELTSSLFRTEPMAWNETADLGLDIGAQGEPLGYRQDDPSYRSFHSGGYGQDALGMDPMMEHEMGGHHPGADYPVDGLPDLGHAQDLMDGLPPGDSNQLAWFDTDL

Columns and labels:
[1] = target: beta-catenin/TCF4 interaction (Homo sapiens, UniProt P35222); format: cell-based; parameters: host or cells: HEK293; settings: read-out: NanoBRET Abs IC50
[2] = target: T1, full-length B-Catenin (Uniprot ID P35222) (Homo sapiens, UniProt P35222); format: binding; settings: competition fluorescence polarization; read-out: beta-Catenin FP IC50
T1 construct: 10 nM full-length B-Catenin (Uniprot ID P35222)

Substance	IC50 [1]	IC50 [2]	IC50 ([1]; absolute IC50)
Ac-PL3-Asp-Npg-B5-Asp-3COOHF-Ala-Ala-Phe-Lys*3-PyrS2-Phe-34ClF-GlnR*3-Val-NH2 [I-834]	1500 to 3000 nM	< 50 nM	
Ac-PL3-Asp-Npg-B5-Asp-3COOHF-Ala-Ala-Phe-Lys*3-PyrS2-Phe-34ClF-GlnR*3-Val-Ser-NH2 [I-835]	3000 to 10000 nM	< 50 nM	
Ac-PL3-Asp-Npg-B5-Asp-3COOHF-Ala-Ala-Phe-Lys*3-SPip3-3Thi-BztA-GlnR*3-Ala-NH2 [I-781]	> 10000 nM	< 50 nM	
Ac-PL3-Asp-Npg-B5-Asp-3COOHF-Cha-Ala-Phe-Lys*3-PyrS2-2F3MeF-BztA-GlnR*3-Leu-NH2 [I-111]	3000 to 10000 nM	50 to 200 nM	
Ac-PL3-Asp-Npg-B5-Asp-3COOHF-CyLeu-Gly-Phe-Lys*3-PyrS2-3Thi-BztA-GlnR*3-Ala-NH2 [I-1014]	3000 to 10000 nM	< 50 nM	
Ac-PL3-Asp-Npg-B5-Asp-3COOHF-CyLeu-aThr-Phe-Lys*3-PyrS2-3Thi-BztA-GlnR*3-Ala-NH2 [I-1020]	3000 to 10000 nM	< 50 nM	
Ac-PL3-Asp-Npg-B5-Asp-3COOHF-CyLeu-nLeu-Phe-Lys*3-PyrS2-3Thi-BztA-GlnR*3-Ala-NH2 [I-1017]	> 10000 nM	< 50 nM	
Ac-PL3-Asp-Npg-B5-Asp-3COOHF-Gln-Ala-Phe-Lys*3-PyrS2-3Thi-BztA-GlnR*3-Ala-NH2 [I-392]		< 50 nM	3000 to 10000 nM
Ac-PL3-Asp-Npg-B5-Asp-3COOHF-Leu-Ala-Phe-Lys*3-PyrS2-2Thi-34ClF-GlnR*3-Ala-NH2 [I-917]	3000 to 10000 nM	< 50 nM	
Ac-PL3-Asp-Npg-B5-Asp-3COOHF-Leu-Ala-Phe-Lys*3-PyrS2-2Thi-BztA-GlnR*3-Ala-NH2 [I-926]	3000 to 10000 nM	< 50 nM	
Ac-PL3-Asp-Npg-B5-Asp-3COOHF-Phe-Ala-Phe-Lys*3-PyrS2-2Thi-34ClF-GlnR*3-Ala-NH2 [I-919]	3000 to 10000 nM	< 50 nM	
Ac-PL3-Asp-Npg-B5-Asp-3COOHF-Phe-Ala-Phe-Lys*3-PyrS2-2Thi-BztA-GlnR*3-Ala-NH2 [I-927]	1500 to 3000 nM	< 50 nM	
Ac-PL3-Asp-Npg-B5-Asp-3COOHF-Phe-Gly-Phe-Lys*3-PyrS2-3Thi-BztA-GlnR*3-Ala-NH2 [I-1015]	3000 to 10000 nM	< 50 nM	
Ac-PL3-Asp-Npg-B5-Asp-3COOHF-Phe-Ser-Phe-Lys*3-PyrS2-3Thi-BztA-GlnR*3-Ala-NH2 [I-1012]	1500 to 3000 nM	< 50 nM	
Ac-PL3-Asp-Npg-B5-Asp-3COOHF-Phe-nLeu-Phe-Lys*3-PyrS2-3Thi-BztA-GlnR*3-Ala-NH2 [I-1018]	3000 to 10000 nM	< 50 nM	
Ac-PL3-Asp-Npg-B5-Asp-3COOHF-Ser-Ala-Phe-Lys*3-PyrS2-3Thi-BztA-GlnR*3-Ala-NH2 [I-390]		< 50 nM	1500 to 3000 nM
Ac-PL3-Asp-Npg-B5-Asp-3COOHF-Val-Gly-Phe-Lys*3-PyrS2-3Thi-BztA-GlnR*3-Ala-NH2 [I-1016]	> 10000 nM	< 50 nM	
Ac-PL3-Asp-Npg-B5-Asp-3COOHF-Val-Ser-Phe-Lys*3-PyrS2-3Thi-BztA-GlnR*3-Ala-NH2 [I-1013]	3000 to 10000 nM	< 50 nM	
Ac-PL3-Asp-Npg-B5-Asp-3COOHF-Val-aThr-Phe-Lys*3-PyrS2-3Thi-BztA-GlnR*3-Ala-NH2 [I-1021]	> 10000 nM	50 to 200 nM	
Ac-PL3-Asp-Npg-B5-Asp-3COOHF-Val-nLeu-Phe-Lys*3-PyrS2-3Thi-BztA-GlnR*3-Ala-NH2 [I-1019]	> 10000 nM	50 to 200 nM	
Ac-PL3-Asp-Npg-B5-Asp-3COOHF-[Me2diaminohexane]GlnR-Ala-Phe-Leu-PyrS2-2F3MeF-BztA-GlnR-NH2 [I-705]	3000 to 10000 nM	< 50 nM	
Ac-PL3-Asp-Npg-B5-Asp-3COOHF-[Phc]Acp-Ala-Phe-Lys*3-PyrS2-3Thi-BztA-GlnR*3-Ala-NH2 [I-1028]	> 10000 nM	< 50 nM	
Ac-PL3-Asp-Npg-B5-Asp-3COOHF-[diaminopentane]GlnR-Ala-Phe-Leu-PyrS2-2F3MeF-BztA-GlnR-NH2 [I-704]	3000 to 10000 nM	< 50 nM	
Ac-PL3-Asp-Npg-B5-Asp-4F3Me2COOHF-Aib-Ala-Phe-Lys*3-PyrS2-2F3MeF-BztA-GlnR*3-Ala-NH2 [I-205]	3000 to 10000 nM	< 50 nM	
Ac-PL3-Asp-Npg-B5-Asp-TfeGA-Aib-Ala-Phe-Lys*3-PyrS2-2F3MeF-34ClF-GlnR*3-Ala-NH2 [I-892]	> 10000 nM	< 50 nM	
Ac-PL3-Asp-Npg-B5-Asp-TfeGA-Ala-Ala-Phe-Lys*3-PyrS2-2F3MeF-BztA-GlnR*3-Aib-NH2 [I-127]	3000 to 10000 nM	< 50 nM	
Ac-PL3-Asp-Npg-B5-Asp-TfeGA-Ala-Ala-Phe-Lys*3-PyrS2-Phe-BztA-GlnR*3-Ala-NH2 [I-896]	3000 to 10000 nM	< 50 nM	
